Reference: article PMC7429951 (Journal of Medicinal Chemistry, 2020)

Legend:
in vitro [1] = conditions: human, HepG2 cells (hepatocellular carcinoma)
in vitro [2] = conditions: human, HEK293 cells (embryonal kidney)
in vitro [3] = conditions: human, A549 cells (lung carcinoma)

Measured: IC50

O=C(CS)Nc1ccc(Cl)c(Cl)c1 [Compound 5, reference compound]
> 100 µM: all assays above
